Source: patent US9828338B2, “Carbamate derivatives of lactam based N-acylethanolamine acid amidase (NAAA) inhibitors” (The Regents of the University of California, priority 2013, dated 2017)
pIC50: −log10 of the molar value.

Target: T1, r-NAAA (Rattus norvegicus, UniProt Q5KTC7)
T1 construct: Lysosomal NAAA protein preparation was obtained by homogenizing male Sprague-Dawley rat lungs; tissue Charles River (animals); host or cells: male Sprague-Dawley rat lung, soluble lysosomal fraction
T1 sequence (Q5KTC7 34-362): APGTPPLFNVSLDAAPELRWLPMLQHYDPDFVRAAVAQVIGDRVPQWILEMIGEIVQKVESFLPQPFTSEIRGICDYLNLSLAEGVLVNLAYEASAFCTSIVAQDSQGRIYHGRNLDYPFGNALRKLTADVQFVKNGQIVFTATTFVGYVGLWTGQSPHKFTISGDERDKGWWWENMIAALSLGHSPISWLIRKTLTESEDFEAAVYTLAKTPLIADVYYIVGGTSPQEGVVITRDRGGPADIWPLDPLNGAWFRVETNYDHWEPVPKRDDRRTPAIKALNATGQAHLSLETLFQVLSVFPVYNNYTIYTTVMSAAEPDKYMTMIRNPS
Test: UPLC/MS r-NAAA assay
Type: biochemical

## O=C(N[C@@H]1CNC1=O)OCCCCC1CCCCC1 [Example 6, 4-cyclohexylbutyl-N-[(3R)-2-oxoazetidin-3-yl]-carbamate]
  pIC50: 5.08

## O=C(N[C@H]1CNC1=O)OCCCCC1CCCCC1 [Example 5, 4-Cyclohexylbutyl-N-[(3S)-2-oxoazetidin-3-yl]-carbamate]
  pIC50: 7.57
